Experimental findings from ChEMBL document CHEMBL5625255, “Discovery of a novel series of potent carbonic anhydrase inhibitors with selective affinity for μ Opioid receptor for Safer and long-lasting analgesia” (2023) are described below.

The term Ki denotes the dissociation constant of the complex between target and ligand, obtained from inhibition or displacement. Read a low Ki as a stronger hold on the target.

This experiment deals with Kappa-type opioid receptor (Cavia porcellus, UniProt P41144). Briefly: Displacement of [3H]-U69,593 from KOR in guinea pig brain membrane by liquid scintillation counter analysis. (In general: Loss of bound radioactivity is the signal in a displacement assay; it reports binding, not function.)

With `NC(=O)C1(Nc2ccccc2)CCN(CCc2ccc(S(N)(=O)=O)cc2)CC1`, the Ki is greater than 2 µM.
